Data: patent US20230151110A1 (HUTCHISON MEDIPHARMA, published 2023)
pIC50, pKd: −log10 of the molar value.

By UniProt entry, the sequences of proteins in these tests, tags left out. Residues count along the entry.
UniProt Q08722, 19-139 limits assumed: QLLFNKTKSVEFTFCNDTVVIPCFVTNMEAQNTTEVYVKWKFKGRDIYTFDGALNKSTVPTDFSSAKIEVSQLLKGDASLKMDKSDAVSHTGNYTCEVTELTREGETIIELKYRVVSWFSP

Legend:
[1] = target: recombinant protein hCD47-Fc containing the extracellular domain of human CD47 fused with the Fc fragment of human IgG (human) (UniProt Q08722); experiment: competition ELISA: hCD47-Fc coated, SIRPα-His 2.5 µg/ml as competitor ligand, anti-His-HRP
[2] = target: human CD47-His fusion protein (human) (UniProt Q08722); experiment: SPR (Biacore T200): antibody captured by anti-human Fc on CM5, human CD47-His as analyte, 1:1 Langmuir fit

pIC50 [1]: 8.81 | pKd [2]: 8.70
Substance: control antibody Hu5F9
